For one molecule, Ki results are on record in BindingDB's records for PubMed 11454918.

By UniProt entry, the sequences of proteins in these tests, tags left out.
UniProt P23977, whole entry: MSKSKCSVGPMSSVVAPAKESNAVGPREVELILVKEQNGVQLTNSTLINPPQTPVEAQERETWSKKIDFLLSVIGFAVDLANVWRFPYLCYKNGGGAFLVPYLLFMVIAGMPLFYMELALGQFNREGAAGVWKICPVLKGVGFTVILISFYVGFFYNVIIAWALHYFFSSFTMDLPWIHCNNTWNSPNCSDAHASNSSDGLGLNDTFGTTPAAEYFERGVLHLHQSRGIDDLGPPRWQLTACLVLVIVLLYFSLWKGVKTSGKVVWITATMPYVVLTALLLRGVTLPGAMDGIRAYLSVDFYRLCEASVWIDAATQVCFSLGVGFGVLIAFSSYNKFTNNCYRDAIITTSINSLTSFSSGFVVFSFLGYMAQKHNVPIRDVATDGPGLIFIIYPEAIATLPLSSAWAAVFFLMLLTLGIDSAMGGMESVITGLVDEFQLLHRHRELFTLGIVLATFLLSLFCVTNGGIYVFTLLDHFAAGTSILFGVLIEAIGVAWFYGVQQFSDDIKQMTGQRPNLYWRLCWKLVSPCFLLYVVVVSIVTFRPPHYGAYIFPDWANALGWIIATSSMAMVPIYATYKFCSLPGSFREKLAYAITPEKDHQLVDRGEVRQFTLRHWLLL

By Ki is commonly meant the dissociation constant of the complex between target and ligand, obtained from inhibition or displacement.

For experiment [1], the target named is Sodium-dependent dopamine transporter (Rattus norvegicus, UniProt P23977).
The target of experiment [2] is Norepinephrine transporter (Rattus norvegicus, UniProt Q9JIA2).

Turning to `COc1ccc(C(CN(C)C)C2(O)CCCCC2)cc1` (configuration not stated) [NSC_62923], the Ki in experiment [1] is more than 10000 nM; in experiment [2], 1000 nM.
